Test results: publication PMC6627553, “Cardiac Rhythm and Molecular Docking Studies of Ion Channel Ligands with Cardiotoxicity in Zebrafish” (Cells, 2019)

Test system: zebrafish embryos aged 72 hpf
Conditions: in vivo

Niguldipine-HCl [compound 1358]
Time interval and heart rates (bpm) versus normal boundaries: did not exceed the normal boundaries
